Results reported in ChEMBL document CHEMBL1208732, “Addressing PXR liabilities of phthalazine-based hedgehog/smoothened antagonists using novel pyridopyridazines” (Bioorg Med Chem Lett, 2010).

The chains behind the UniProt entries cited, without tags or fusion partners.
UniProt Q99835, whole entry: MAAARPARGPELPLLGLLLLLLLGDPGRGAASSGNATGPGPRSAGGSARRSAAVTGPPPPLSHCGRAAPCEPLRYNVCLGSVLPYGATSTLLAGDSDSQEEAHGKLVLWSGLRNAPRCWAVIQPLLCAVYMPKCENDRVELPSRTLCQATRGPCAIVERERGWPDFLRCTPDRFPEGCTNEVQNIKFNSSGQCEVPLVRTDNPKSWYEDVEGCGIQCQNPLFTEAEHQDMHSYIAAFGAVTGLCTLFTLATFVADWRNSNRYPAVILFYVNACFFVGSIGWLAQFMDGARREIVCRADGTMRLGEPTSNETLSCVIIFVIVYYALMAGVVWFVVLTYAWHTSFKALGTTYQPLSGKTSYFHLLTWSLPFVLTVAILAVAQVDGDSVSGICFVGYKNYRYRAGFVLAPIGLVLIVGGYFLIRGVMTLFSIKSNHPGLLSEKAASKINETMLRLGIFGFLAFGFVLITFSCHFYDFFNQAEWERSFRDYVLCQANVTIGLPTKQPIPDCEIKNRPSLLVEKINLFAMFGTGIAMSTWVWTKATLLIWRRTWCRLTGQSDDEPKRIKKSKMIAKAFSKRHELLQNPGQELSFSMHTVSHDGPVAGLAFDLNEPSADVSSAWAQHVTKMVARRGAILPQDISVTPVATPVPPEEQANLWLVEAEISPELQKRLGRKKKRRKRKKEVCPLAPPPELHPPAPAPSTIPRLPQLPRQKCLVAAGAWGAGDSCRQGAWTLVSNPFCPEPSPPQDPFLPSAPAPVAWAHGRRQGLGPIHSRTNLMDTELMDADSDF

Biological target: Protein smoothened (Homo sapiens, UniProt Q99835)
Assay: Antagonist activity at human Smo receptor in HEPM cells assessed as inhibition of Gli expression after 24 hrs by quantigene assay
Type: functional, cell-based
How it was run: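 HEPM cells incubated with compound in MEM with 0.5% charcoal-dextran treated FBS and […] myristoylated mouse Shh protein. GLI expression measured 24 h after adding compound and Shh, using a Quantigene assay.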

Row | IC50 [nM] | SMILES
1 | 5.3 | C[C@@H]1CN(C(=O)c2ccccc2)CCN1c1nnc(-c2ccc(N(C)C)cc2)c2ccccc12
2 | 5.3 | C[C@H]1CN(C(=O)c2ccccc2)CCN1c1nnc(-c2ccccc2)c2ccccc12
